Results reported in article PMC5772648, “Targeted NUDT5 inhibitors block hormone signaling in breast cancer cells” (Nature Communications, 2018).

Legend:
solubility = assay type: physicochemical
HL-60 or U-2 OS cells = experiment: cell viability by resazurin; conditions: 72 h, Supplementary Fig. 7
Description: Cell viability was assessed by resazurin[9]. 5000 HL-60 cells (or 1000 U-2 OS/2000 T47D cells) were seeded per well on a 96-well plate. The following morning, compounds (or the equivalent amount of DMSO) were added to obtain the final concentrations indicated and the cells were incubated at 37 °C for 72 h with resazurin added at 0.02 mg/mL for the last 2–6 h. Resorufin fluorescence was detected at […] with a Hidex Sense fluorescent plate reader. Viability curves were fit using the sigmoidal dose-response (variable slope) function in GraphPad Prism 7.

human NUDT5 = human NUDT5 (Homo sapiens, UniProt Q9UKK9); experiment: enzyme-coupled malachite green assay (MG assay), ADPR hydrolysis; assay type: biochemical; conditions: NUDT5, ADPR substrate
Source text: We next sought to develop small molecule NUDT5 inhibitors to further probe the role of NUDT5 in ADPR metabolism. A high-throughput, screening-compatible NUDT5 inhibition assay was established using slight modifications to the aforementioned MG procedure (Fig. 2a)[15],[27]. Briefly, ADPR, NUDT5 and calf intestinal alkaline phosphatase (CIP) were combined in a coupled enzymatic assay, as described in the online methods. In turn, ADPR was hydrolyzed to AMP and R5P by NUDT5, and the released R5P was further degraded to ribose and inorganic phosphate (Pi) by CIP. Free Pi was subsequently detected using the malachite green reagent. […]
Activity of NUDT5 and MTH1 with a panel of potential substrates [2-OH-ATP, 2-OH-dATP, 8-oxo-dGDP, GDP and 8-oxo-GTP (Jena Biosciences), 8-oxo-dGTP (TriLink Biotechnologies), dATP (ThermoFisher Scientific), dGTP, GTP and ADPR (Sigma-Aldrich)] was assessed in reaction buffer (100 mM Tris Acetate pH 7.5, 40 mM NaCl, 10 mM Mg Acetate) at 22 °C. […] After 30 min incubation with shaking, formed inorganic phosphate was detected by addition of malachite green reagent. Absorbance at 630 nm was read after 15 min incubation with shaking using a Hidex Sense plate reader. The potency of NUDT5 inhibitors was assessed similarly as above (and in the screening campaign) by monitoring ADPR hydrolysis; details are in the Supplementary Information. […]

[1] = biological target: NUDT5 in HL-60 cell lysates (Homo sapiens, UniProt Q9UKK9); experiment: cell lysate CETSA (HT-CETSA); conditions: 20 µM, 83 °C
[2] = biological target: NUDT5 in intact HL-60 cells (Homo sapiens, UniProt Q9UKK9); experiment: intact cell CETSA; conditions: 20 µM, 83 °C

solubility (solubility)	pIC50 (human NUDT5; read-out: MG assay IC50 (Biochemical IC50))	NUDT5 stabilization in intact cells [2]	pIC50 (human NUDT5; read-out: MG assay IC50)	Structure (SMILES)	toxicity (HL-60 or U-2 OS cells)	NUDT5 stabilization in cell lysates [1]
major solubility issues	–	–	–	CC(C)c1nc2c(c(=O)n(C)c(=O)n2C)n1Cc1nnc(-c2ccc(Cl)c(Cl)c2)o1	–	–
–	7.70	showed a smaller degree of stabilization	–	Cn1c(=O)c2c(nc(Br)n2Cc2nnc(-c3ccc(Cl)c(Cl)c3)o2)n(C)c1=O	distinctly toxic under tested conditions	unable to stabilize NUDT5 above the 50 % cutoff
very poor solubility	–	–	6.96	CCN(CC)c1nc2c(c(=O)n(C)c(=O)n2C)n1Cc1nnc(-c2ccc(Cl)c(Cl)c2)o1	–	–

pIC50: −log10 of the molar value. Where two headings read alike, the source gives them in different places.
